## Reported properties for industrial, environmental and drug-like chemicals

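The OPERA project collected these measurements from public sources as training and test data for property models. The files give a single number for a compound and property, which may rest on several reports. Method and conditions are not stated for these values. Where a salt, mixture or single isomer is drawn, the source does not say that exactly this form was tested. Unmarked limits or estimates from the upstream databases cannot be ruled out.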

Melting points are in °C. Boiling points are in °C, nominally at 760 mmHg. The octanol-water partition coefficient is given as log10; larger values mean a more lipophilic compound. Water solubility is log10 of mol/L, nominally at 25 °C; higher is more soluble. Vapor pressures (log10 mmHg) refer to near room temperature, 15 to 30 °C; higher is more volatile. The unbound fraction in human plasma runs from 0 (all bound) to 1 (all free). Clint is human hepatic intrinsic clearance in µL/min per million cells; 0 means that no clearance was seen. Entries marked < or ≤ lay at or below the stated limit. Cells with "–" have no entry in this list.

melting point (°C),boiling point (°C),logP (octanol/water),water solubility (log10 mol/L),log VP (log10 mmHg),fu,hepatic Clint (µL/min/10^6 cells),structure (SMILES)
25.8,–,4.5,-4.586,–,–,–,O=C(OC1CCCCC1)c1ccccc1O
79,–,–,-8.44,–,–,–,Clc1ccc(Oc2cc(Cl)c(Cl)c(Cl)c2Cl)c(Cl)c1
273.4,–,-1.01,-2.03,–,–,–,Cc1[nH]c(N)nc(=O)c1CCO
180,–,1.2,-2.671,–,–,–,CC1(C)C(C=CC2=C(Cl)/C(=C/C=C3\N(CCCCS(=O)(=O)[O-])c4ccc5ccccc5c4C3(C)C)CCC2)=[N+](CCCCS(=O)(=O)[O-])c2ccc3ccccc3c21.[NH4+]
19,254,0.8,–,-1.782,–,–,C=CN1CC(C)OC1=O (stereo not given)
–,–,2,–,-1.375,–,–,CC(=O)CCc1ccccc1
176,–,–,-2.16,–,–,–,NC(=O)NCCCCCC(=O)O
–,–,3.2,-2.096,-0.982,–,–,C=C1C(O)CC2CC1C2(C)C (stereo not given)
–,–,1.757,-2.371,–,–,–,CCN(CC)c1ccc(C(=N)c2ccc(N(CC)CC)cc2)cc1.Cl
–,–,4.69,-4.273,–,–,–,CC(C)=CCCC1=CCC(C)(C=O)CC1 (stereo not given)
129,–,–,-1.888,–,–,–,COC(=O)C1(O)CC(CO)=NN1c1ncccc1Cl (stereo not given)
-73,–,–,–,-1.849,–,–,C=CCCCCCCCCC(C)CCCCCCCC (stereo not given)
170,–,2.32,–,–,–,–,CC(=O)c1ccc2cc(O)c(O)cc2c1
–,–,1.2,-3.745,–,–,–,CCN(CC)CC(=O)OCC(=O)[C@@]1(O)CC[C@H]2[C@@H]3CCC4=CC(=O)CC[C@]4(C)[C@H]3[C@@H](O)C[C@@]21C
–,–,0.62,–,-4.647,–,–,N=C1NC(=N)c2ccccc21
–,–,1.5,-2.043,–,–,–,CC(=O)Nc1ccc(F)cc1Br
-111.6,268.2,3.89,-3.682,-1.878,–,–,C=CCCC(=O)CC1CC2CCC1C2 (stereo not given)
–,–,1.8,–,1.282,–,–,CCCC(C)C=O (stereo not given)
237.9,–,-2.32,–,–,–,–,N#Cc1ccc(SCCCS(=O)(=O)[O-])cc1C#N.[Li+]
5,–,1.81,–,-3.234,–,–,CCCCCCOCC(O)CO (stereo not given)
–,–,–,–,–,0.05913,58.41,CC(CN(C)C)CN1c2ccccc2CCc2ccccc21 (stereo not given)
60.7,–,9.4,-6.673,≤ -16,–,–,Cc1cc(O[C@@H]2O[C@H](CO)[C@@H](O)[C@H](O)[C@H]2O)cc2c1O[C@](C)(CCC[C@H](C)CCC[C@H](C)CCCC(C)C)CC2
187.4,303.4,2.51,-4.542,-9.803,–,–,CCCCNC(=O)CC[C@H](NC(=O)C(CC)CCCC)C(=O)NCCCC (some centres undefined)
70.5,–,–,-6.923,-7.021,–,–,CC(C)CN(CC(C)C)C(=S)SSC(=S)N(CC(C)C)CC(C)C
–,–,1.5,-3.574,–,–,–,Nc1nc(=O)c2c(CCc3ccc(C(=O)O)cc3)c[nH]c2[nH]1
–,233.8,2.8,–,-1.569,–,–,CCCCCC1=CCCC1=O
–,–,3.9,-3.702,–,–,–,CN1CCCCC1CCN1c2ccccc2Sc2ccc(S(C)=O)cc21 (stereo not given)
–,–,2.6,–,-4.824,–,–,COC(=O)c1c(C)cc(O)c(C)c1O
135,–,–,-8.78,–,–,–,Clc1ccc(Oc2cc(Cl)c(Cl)c(Cl)c2Cl)cc1Cl
–,–,–,-4.67,0.368,–,–,CC1=CCC2C(C1)C2(C)C (stereo not given)

The first 4 entries again:

{"smiles": "O=C(OC1CCCCC1)c1ccccc1O", "melting point (°C)": "25.8", "logP (octanol/water)": "4.5", "water solubility (log10 mol/L)": "-4.586"}
{"smiles": "Clc1ccc(Oc2cc(Cl)c(Cl)c(Cl)c2Cl)c(Cl)c1", "melting point (°C)": "79", "water solubility (log10 mol/L)": "-8.44"}
{"smiles": "Cc1[nH]c(N)nc(=O)c1CCO", "melting point (°C)": "273.4", "logP (octanol/water)": "-1.01", "water solubility (log10 mol/L)": "-2.03"}
{"smiles": "CC1(C)C(C=CC2=C(Cl)/C(=C/C=C3\\N(CCCCS(=O)(=O)[O-])c4ccc5ccccc5c4C3(C)C)CCC2)=[N+](CCCCS(=O)(=O)[O-])c2ccc3ccccc3c21.[NH4+]", "melting point (°C)": "180", "logP (octanol/water)": "1.2", "water solubility (log10 mol/L)": "-2.671"}

Source: data files of OPERA 2.9 (Mansouri et al.), github.com/kmansouri/OPERA.